In US9826734B2, “Etherified lactate esters, method for the production thereof and use thereof for enhancing the effect of plant protecting agents” (Clariant International Ltd., priority 2011, dated 2017):

Assays:
leaf cuticles of apple [1] = assay: Membrane penetration of thiacloprid through isolated apple leaf cuticles; settings: 0.2 g/l thiacloprid
Text: (§1) Surfactants may also promote the uptake of (active) ingredients through membranes such as skin, films, or the plant cuticle. In the form of what is called “finite dose” application, it is known, for the single administration or application of a solution, cream, gel, etc. to a membrane, that the uptake of active ingredient can be influenced, even after wetting has taken place, by certain adjuvants such as surfactants.
(§2) The potential, independent of the surfactant activity, to promote the leaf uptake of active agrochemical ingredients was determined in membrane penetration experiments with leaf cuticles of apple. […] After they had been dried in air, the cuticles were installed into stainless steel diffusion cells. After application to the original top leaf face and evaporation of the test fluid, i.e., of the aqueous preparations of the active ingredients without or with the etherified lactate esters, the diffusion cells were transferred to thermostated blocks and were filled with aqueous liquid. The water used to prepare the aqueous test liquids was local tap water (known composition). At regular intervals, samples were taken and the penetrated fraction of active ingredient was determined, depending on the test system, either by HPLC or by scintillation measurement. In the system with radiolabeled active ingredient (thiacloprid and fluoxastrobin), the aqueous liquid was a phospholipid suspension and the entire quantity was replaced. […] During the experiment, the temperature in the system (block, diffusion cells, liquids, etc.) and the atmospheric humidity over the spray coating on the cuticle was precisely known and monitored.
1) a solution of the insecticide thiacloprid with 0.5 g/l and 3 g/l etherified lactate ester

leaf cuticles of apple [2] = assay: Membrane penetration of fluoxastrobin through isolated apple leaf cuticles; settings: 0.3 g/l fluoxastrobin
Text: as §1, §2
3) a solution of fungicide fluoxastrobin with 0.5 g/l and 2 g/l etherified lactate ester

[3] = 0.5 g/l etherified lactate ester, 24 h, 20° C./60% RH
[4] = 0.5 g/l etherified lactate ester, 48 h, 30° C./60% RH
[5] = 3 g/l etherified lactate ester, 24 h, 20° C./60% RH
[6] = 3 g/l etherified lactate ester, 48 h, 30° C./60% RH
[7] = 0.5 g/l etherified lactate ester, 24 h, 15° C./60% RH
[8] = 2 g/l etherified lactate ester, 24 h, 15° C./60% RH
[9] = 2 g/l etherified lactate ester, 48 h, 25° C./60% RH
[10] = 0.5 g/l etherified lactate ester, 48 h, 25° C./60% RH

Mean penetration of thiacloprid in % (leaf cuticles of apple [1]; [3]) [%] | Mean penetration of thiacloprid in % (leaf cuticles of apple [1]; [4]) [%] | Mean penetration of thiacloprid in % (leaf cuticles of apple [1]; [5]) [%] | Mean penetration of thiacloprid in % (leaf cuticles of apple [1]; [6]) [%] | Mean penetration of fluoxastrobin in % (leaf cuticles of apple [2]; [7]) [%] | Mean penetration of fluoxastrobin in % (leaf cuticles of apple [2]; [8]) [%] | Mean penetration of fluoxastrobin in % (leaf cuticles of apple [2]; [9]) [%] | Mean penetration of fluoxastrobin in % (leaf cuticles of apple [2]; [10]) [%] | Substance
5.6 | 6.5 | 35.5 | 43.0 | 10.6 | 11.4 | 18.9 |  | 2-ethylhexyl lactate 2EO
11.5 | 15.1 | 20.3 | 23.4 | 12.1 | 16.1 | 26.0 | 18.6 | 2-ethylhexyl lactate 2PO/2EO
10.2 | 12.1 | 43.2 | 49.2 | 9.9 | 14.4 | 24.2 | 16.2 | 2-ethylhexyl lactate 2PO/5EO
8.1 | 10.0 | 36.9 | 47.2 | 8.9 | 13.1 | 22.1 | 17.5 | 2-ethylhexyl lactate 2PO/10EO
12.1 | 14.1 | 31.4 | 39.9 | 8.7 | 13.0 | 21.4 | 13.9 | 2-ethylhexyl lactate 5EO
11.0 | 12.4 | 39.6 | 46.2 | 9.7 | 16.8 | 26.9 | 15.9 | 2-ethylhexyl lactate 10EO
10.5 | 14.0 | 29.9 | 41.9 | 9.5 | 13.4 | 25.8 | 14.1 | 2-ethylhexyl lactate 15EO
13.6 | 17.4 | 63.9 | 74.5 | 3.3 | 12.7 | 25.6 | 7.5 | Lauryl lactate 5EO/2PO
18.6 | 24.0 | 67.4 | 76.3 | 4.7 | 12.2 | 23.1 | 10.0 | Lauryl lactate 5EO/5PO
14.5 | 18.8 | 73.3 | 80.4 | 4.0 | 11.5 | 20.4 | 7.8 | Lauryl lactate 8EO/2PO
20.5 | 27.3 | 72.0 | 82.9 | 3.9 | 6.8 | 19.8 | 9.6 | Lauryl lactate 8EO/5PO
